From PubChem BioAssay (NCATS)
Only results without a clear call are listed here; the source files them as inconclusive. Calls come from the whole dose curve; as a rule, active = well fitted curve in the direction sought with a large enough effect; inconclusive = small, poorly fitted or top-dose-only effect, or another doubt; inactive = no such curve, though single readings can be large; an effect the other way counts as inactive or inconclusive.

Experiments:
[1] = Quantitative highthroughput screen to assess conditional lethalithy of SEM cells grown in Human Plasma-Like Medium with dialyzed fetal bovine serum (HPLM+ds) (AID 1963882); conditions: SEM B-ALL cells in HPLM+ds, CellTiter-Glo viability, 48 h; note: nearly all actives have a fitted effect of over 35% in size
Description: Assay Provider: Jason Cantor Ph.D.
Department of Biochemistry
University of Wisconsin-Madison, Madison, WI, USA
Chemical screening studies have identified drug sensitivities across hundreds of cancer cell lines but most putative therapeutics fail to translate. Discovery and development of drug candidates in models that more accurately reflect nutrient levels in human blood is a major challenge. Here we performed high-throughput screens in conventional versus Human Plasma-Like Medium (HPLM) to identify compounds that were "missed" when screening using the artificial culture condition. Sets of conditional anticancer compounds spanned phases of clinical development and included non-oncology drugs were assessed. […] We also traced conditional phenotypes for several chemotherapeutics to availability of HPLM-specific metabolites and confirmed others for compounds whose reported targets are encoded by nonessential genes. Our findings establish generalizable strategies for exploiting conditional lethality in HPLM to reveal therapeutic candidates and mechanisms of action in cancer cells. […]
6; Detection; Luminescence, Viewlux PerkinElmer. […]
6. The luminescence signal was measured using a ViewLux (PerkinElmer) multiplate reader with a 2 second exposure time per plate. […]

[2] = Quantitative highthroughput screen to assess conditional lethalithy of SEM cells grown in RPMI1640 with unreated serum (RPMI+s) (AID 1963883); conditions: SEM B-ALL cells, CellTiter-Glo viability, 48 h; note: nearly all actives have a fitted effect of over 35% in size
[3] = Cellular viability qHTS for adrenocortical cancer (ACC) cell line SW-13 (AID 1963989); conditions: SW-13 ACC cells viability, CellTiter-Glo, 48 h; note: nearly all actives have a fitted effect of over 65% in size
[4] = Cellular viability qHTS for adrenocortical cancer (ACC) cell line NCI-H295R (AID 1963990); conditions: CellTiter-Glo ATP luminescence, 48 h; note: nearly all actives have a fitted effect of over 60% in size
Potency is the fitted concentration of half-maximal effect.

In the case of `CCn1c(=O)n([C@@H]2CCN(CC3CCCCCCC3)C[C@@H]2CO)c2ccccc21`, the Potency [1] is reported as inconclusive: 0.0012 µM and the Potency [2] is reported as inconclusive: 0.001 µM.
With `CCn1c(=O)n([C@@H]2CCN(CC3CCCCCCC3)C[C@H]2CO)c2ccccc21` the Potency [3] was inconclusive: 31.6 µM.
For `N[C@@H](Cc1ccc([N+]([O-])(CCCl)CCCl)cc1)C(=O)O`, the Potency [3] was inconclusive: 25.1 µM.
For `Cc1cc([N+](=O)[O-])cc([N+](=O)[O-])c1O`, the Potency [4] was inconclusive: 44.7 µM.
